The results in this text go back to patent US10144738B2, “Pyrazolo[1,5-A]PYRAZIN-4-YL derivatives” (Pfizer Inc., priority 2016, dated 2018).

Protein sequences, listed by entry. Tags and fused reporters are not part of them. Residues count along the entry.
UniProt O60674, 849-1124: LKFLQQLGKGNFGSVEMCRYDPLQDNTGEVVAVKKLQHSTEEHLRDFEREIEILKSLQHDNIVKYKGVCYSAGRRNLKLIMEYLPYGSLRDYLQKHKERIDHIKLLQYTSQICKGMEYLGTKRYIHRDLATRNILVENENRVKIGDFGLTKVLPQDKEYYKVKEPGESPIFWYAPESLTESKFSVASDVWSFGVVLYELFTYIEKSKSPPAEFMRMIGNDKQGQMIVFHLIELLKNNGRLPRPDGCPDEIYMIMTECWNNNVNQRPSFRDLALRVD
UniProt P23458, 875-1153: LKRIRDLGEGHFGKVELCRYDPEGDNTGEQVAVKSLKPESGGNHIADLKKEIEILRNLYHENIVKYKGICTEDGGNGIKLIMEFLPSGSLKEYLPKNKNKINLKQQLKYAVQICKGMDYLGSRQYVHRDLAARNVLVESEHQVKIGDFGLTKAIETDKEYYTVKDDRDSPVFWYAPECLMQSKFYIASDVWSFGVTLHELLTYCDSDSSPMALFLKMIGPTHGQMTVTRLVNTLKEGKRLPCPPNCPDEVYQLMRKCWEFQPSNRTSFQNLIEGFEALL
UniProt P29597, 897-1176: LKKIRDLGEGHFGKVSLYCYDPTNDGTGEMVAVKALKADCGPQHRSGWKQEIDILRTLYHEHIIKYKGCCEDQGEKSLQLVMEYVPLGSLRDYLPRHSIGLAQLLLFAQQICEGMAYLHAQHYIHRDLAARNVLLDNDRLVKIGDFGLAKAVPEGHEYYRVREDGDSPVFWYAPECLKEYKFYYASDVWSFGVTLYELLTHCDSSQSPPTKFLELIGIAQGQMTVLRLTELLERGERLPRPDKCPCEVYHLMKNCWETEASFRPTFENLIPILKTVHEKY

Usually pIC50 stands for the IC50 on a negative log10 scale, so that one unit is a factor of ten.

Type in all cases: biochemical
What all share (conditions): recombinant human kinase domain, Caliper mobility shift

One assay concerns the target JAK2 (Homo sapiens (Human), UniProt O60674). Description: JAK Caliper enzyme assay at 1 mM ATP (JAK2).
The target of another assay is JAK1 (Homo sapiens (Human), UniProt P23458). Nature of the assay: JAK Caliper enzyme assay at 1 mM ATP (JAK1).
For the next assay, the target named is TYK2 (Homo sapiens (Human), UniProt P29597). Nature of the assay: JAK Caliper enzyme assay at 1 mM ATP (TYK2).

pIC50: −log10 of the molar value.

As to `Cn1cc(-c2cn3nccc3c(-c3cnn([C@]4(CC#N)C[C@H](O)C4)c3)n2)cn1` [Example 13, 2-((1s,3r)-3-Hydroxy-1-(4-(6-(1-methyl-1H-pyrazol-4-yl)pyrazolo[1,5-a]pyrazin-4-yl)-1H-pyrazol-1-yl)cyclobutyl)acetonitrile], at JAK2, the pIC50 was 6.31.
`N#CC[C@]1(n2cc(-c3nc(-c4cc(CO)on4)cn4nccc34)cn2)C[C@@H](C#N)C1` [Example 1, (1s,3s)-3-(Cyanomethyl)-3-(4-(6-(5-(hydroxymethyl)isoxazol-3-yl)pyrazolo[1,5-a]pyrazin-4-yl)-1H-pyrazol-1-yl)cyclobutane-1-carbonitrile]: the pIC50 at JAK1 was 6.54.
With `CO[C@H]1C[C@@](CC#N)(n2cc(-c3nc(-c4cnn(C)c4)cn4nccc34)cn2)C1` [Example 16, 2-((1s,3r)-3-Methoxy-1-(4-(6-(1-methyl-1H-pyrazol-4-yl)pyrazolo[1,5-a]pyrazin-4-yl)-1H-pyrazol-1-yl)cyclobutyl)acetonitrile], on TYK2, the pIC50 is 7.80.
Still for that read-out and setting: then `CO[C@H]1C[C@](CC#N)(n2cc(-c3nc(-c4cnn(C)c4)cn4nccc34)cn2)C1` [Example 15, 2-((1r,3s)-3-Methoxy-1-(4-(6-(1-methyl-1H-pyrazol-4-yl)pyrazolo[1,5-a]pyrazin-4-yl)-1H-pyrazol-1-yl)cyclobutyl)acetonitrile], with 7.66.
